“And” between values parts separate entries of the source, which are not always exact repeats. Identical values can stand only once. The list shows a part of the results, in another mix than the full data. The source made the active and inactive calls. The call rests on the fitted dose curve; in most records, active means well fitted inhibition curve with a large enough effect; inconclusive means small, poorly fitted or top-dose-only effect; inactive means flat fitted curve, though single readings scatter.
Molecular target: Polyunsaturated fatty acid lipoxygenase ALOX12 (Homo sapiens) (UniProt P18054)
Assay: qHTS Assay for Inhibitors of 12-hLO (12-human lipoxygenase); further: nearly all actives have a fitted effect of over 55% in size
Settings: purified 12-hLO, xylenol orange hydroperoxide absorbance
Description: Assay Provider: Holman, T.R., University of California, Santa Cruz Screening Center PI: Austin, C.P. Screening Center: NIH Chemical Genomics Center [NCGC] Human lipoxygenase 12hLO is a member of the closely related lipoxygenase family of enzymes which catalyze the site-specific oxidation of arachidonic acid to various hormone precursor molecules and as such is a candidate for drug development in a variety of disease areas, such as cancer and inflammation. Inhibition of 12hLO activity was screened by utilizing arachidonic acid as a substrate. The extent of hydroperoxide product formation was measured by a secondary chromogenic reaction in which xylenol orange (XO, Sigma-Aldrich, cat. number 39,818-7) reacts with the ferric ions produced from the reaction between the hydroperoxide and ferrous ions. The Fe(III)-XO complex is characterized with red-shifted absorbance at 560 nm. A purified preparation of human 12hLO was supplied by Professor Ted Holman, University of California, Santa Cruz.
Assay Protocol: Buffer: 25 mM Hepes pH 7.0, 0.01% Triton X-100. Reagents/Controls: Buffer in columns 3 and 4 as negative control (no enzyme). Substrate solution: 40 uM arachidonic acid (Sigma-Aldrich, St. Louis, MO) final concentration dispensed throughout the plate. Enzyme: 150 nM 12hLO final concentration in columns 1, 2, 5-48. Column 1 is neutral (100% activity). Column 2 contained pin-transferred titration of NDGA (nordihidroguaiaretic acid, Sigma-Aldrich, N 5023, top concentration 20 mM in DMSO, then 1:3 dilution in duplicate). (Dilution factor: 23 nL into 4 uL.) Chromogenic detection reagent (divalent iron/xylenol orange, Fe-XO): 200 uM xylenol orange plus 300 uM ferrous ammonium sulfate prepared freshly in 50 mM sulfuric acid. Assay Steps: Three uL of enzyme were dispensed to 1536-well Greiner black clear bottom plates. Compounds and controls (23 nL) were transferred via Kalypsys PinTool. The plates were incubated for 15 min at room temperature, and then 1 uL of substrate solution was added to start the reaction. After room temperature incubation for 30 minutes, 4 uL of Fe-XO solution was added to each well and the plates were incubated for 30 min. The absorbance at 405 and 573 nm were measured using ViewLux (Perkin-Elmer) High-throughput CCD imager and absorbance protocol settings. The 573-to-405 absorbance ratio was used to compute reaction progress.

Sequences of proteins named here, by UniProt entry; tags and fusion partners are left off. A change or cut given only in a name is not applied to a line headed by its entry.
UniProt P18054: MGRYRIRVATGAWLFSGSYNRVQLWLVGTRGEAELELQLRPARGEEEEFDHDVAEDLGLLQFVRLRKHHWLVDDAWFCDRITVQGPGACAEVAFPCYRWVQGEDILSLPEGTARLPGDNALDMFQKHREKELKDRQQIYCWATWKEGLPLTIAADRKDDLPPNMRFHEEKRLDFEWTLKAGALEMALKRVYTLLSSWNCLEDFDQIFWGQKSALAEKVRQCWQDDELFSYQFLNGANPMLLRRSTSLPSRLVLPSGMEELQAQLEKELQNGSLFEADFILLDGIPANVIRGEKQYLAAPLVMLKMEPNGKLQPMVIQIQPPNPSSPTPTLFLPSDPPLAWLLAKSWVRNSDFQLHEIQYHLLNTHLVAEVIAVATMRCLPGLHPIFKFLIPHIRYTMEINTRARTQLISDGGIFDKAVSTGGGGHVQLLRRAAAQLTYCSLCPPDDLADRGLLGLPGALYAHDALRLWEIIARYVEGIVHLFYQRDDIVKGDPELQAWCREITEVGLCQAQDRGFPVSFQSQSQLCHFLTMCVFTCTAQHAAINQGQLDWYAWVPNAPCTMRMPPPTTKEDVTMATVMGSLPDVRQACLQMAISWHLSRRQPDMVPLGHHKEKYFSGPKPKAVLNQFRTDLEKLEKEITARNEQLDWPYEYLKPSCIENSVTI

[1] = at 57.1 µM (top of the series) unless noted
On the % scale 0 is the no-effect control and ±100 the full control effect.

## Cc1cc(SC(NC(=O)c2ccccc2)C(Cl)(Cl)Cl)nc(C(C)C)n1 (stereo not given)
[1]
  activity change, negative = inhibition: inactive: -7.95%

## CN(N=O)C(=N)N[N+](=O)[O-]
[1]
  activity change, negative = inhibition: inactive: -0.962%

## O=C(O)[C@@H](O)c1ccc([As](=O)(O)O)cc1
[1]
  activity change, negative = inhibition: inactive: -8.63% [at 11.4 µM]

## O=C(COc1ccccc1)OC1CN2CCC1CC2 (stereo not given)
[1]
  activity change, negative = inhibition: inactive: 4.52%

## COP1(=S)c2c(C)nn(CCC#N)c2N=C(c2ccc(F)cc2)N1C (stereo not given)
[1]
  activity change, negative = inhibition: inactive: 5.96%

## CCC(C)N(CC(C)C)C(=S)SC(NC(C)=O)C(Cl)(Cl)Cl (stereo not given)
[1]
  activity change, negative = inhibition: inactive: -5.58%

## Cc1c2c(nc3ccccc13)SC(C(Cl)Cl)C2 (stereo not given)
[1]
  activity change, negative = inhibition: inactive: -4.89%

## O=C(OC1CN2CCC1CC2)C12CC3CC(CC(C3)C1)C2 (stereo not given)
[1]
  activity change, negative = inhibition: inactive: 5.28%

## Cc1ccc2nc3c(c(C)c2c1)CC(C(Cl)Cl)S3 (stereo not given)
[1]
  activity change, negative = inhibition: inactive: -11.1%

## CCN(CC)C(=S)SC(NC=O)C(Cl)(Cl)Cl (stereo not given)
[1]
  activity change, negative = inhibition: inactive: 1.79%

## O=[N+]([O-])c1cc([N+](=O)[O-])c(-c2ccn[nH]2)s1
[1]
  activity change, negative = inhibition: inactive: -8.22%

## ClCCSc1nnc(-c2cccnc2)o1
[1]
  activity change, negative = inhibition: inactive: -5.7%

## O=[As]c1ccc(S(=O)(=O)NCCO)cc1 (stereo not given)
[1]
  activity change, negative = inhibition: inactive: 1.05% [at 11.4 µM]

## [N-]=[N+]=NCC(N)=O
[1]
  activity change, negative = inhibition: inactive: 8.95% [at 11.4 µM]

## O=[As](O)(O)c1ccc([As](=O)(O)O)cc1
[1]
  activity change, negative = inhibition: inactive: 5.79% [at 11.4 µM]

## CCOP1(=S)c2c(C)nn(CCC#N)c2N=C(c2ccccc2F)N1C (stereo not given)
[1]
  activity change, negative = inhibition: inactive: 2.01%

## CCOP1(=S)c2c(C)nn(CCC#N)c2N=C(c2ccc(F)cc2)N1C (stereo not given)
[1]
  activity change, negative = inhibition: inactive: -2.4%

## O=[N+]([O-])c1ccc2c(c1)nnn2O
[1]
  activity change, negative = inhibition: inactive: 2.24%

## Cc1cccc(OCC(=O)OC2CN3CCC2CC3)c1 (stereo not given)
[1]
  activity change, negative = inhibition: inactive: -0.891%

## COc1cc(C2NCCC3(OCCO3)C2(C)C)cc(OC)c1OC (stereo not given)
[1]
  activity change, negative = inhibition: inactive: -3.03%

## CCOP(=O)(Nc1cccc2ccccc12)OCC
[1]
  activity change, negative = inhibition: inactive: -0.728%

## CN(C(=O)Cc1ccc(Cl)c(Cl)c1)[C@@H]1CC[C@@]2(CCCO2)C[C@H]1N1CCCC1
[1]
  activity change, negative = inhibition: inactive: 6.69%

## O=C(CC(=O)c1ccccc1)O[C@H]1CN2CCC1CC2
[1]
  activity change, negative = inhibition: inactive: 6.5% [at 11.4 µM]

## Cc1ccc(NCCc2c([N+](=O)[O-])cc([N+](=O)[O-])cc2[N+](=O)[O-])cc1
[1]
  activity change, negative = inhibition: inactive: -15.2%

## NS(=O)(=O)Cc1ccc([As](=O)(O)O)cc1
[1]
  activity change, negative = inhibition: inactive: -1.3% [at 11.4 µM]

## Clc1n[nH]nc1-c1nn[nH][15n]1
[1]
  activity change, negative = inhibition: inactive: -7.49%

## O=P1(Nc2ccccn2)COc2ccccc2OC1
[1]
  activity change, negative = inhibition: inactive: -2.43%

## CN(CCCl)Cc1cc(Cl)c(NC2=NCCN2)c(Cl)c1
[1]
  activity change, negative = inhibition: inactive: 1.49%

## CN(C(=O)Cc1ccc(Cl)c(Cl)c1)[C@@H]1CCCC[C@H]1N1CCCC1
[1]
  activity change, negative = inhibition: inactive: -1.59% [middle of 4 runs]

## Cc1nn(-c2ccccc2)c2c1P(=O)(N1CCOCC1)N(C)C(c1ccccc1)=N2 (stereo not given)
[1]
  activity change, negative = inhibition: inactive: -3.67%

## O=P1(Nc2ccc(Br)cn2)COc2ccccc2OC1
[1]
  activity change, negative = inhibition: inactive: 0.672%

## Cc1ccc(OCC(=O)OC2CN3CCC2CC3)cc1 (stereo not given)
[1]
  activity change, negative = inhibition: inactive: 1.35%

## O=P1(Nc2ncccn2)COc2ccccc2OC1
[1]
  activity change, negative = inhibition: inactive: 1.67%

## [N-]=[N+]=Nc1ccc([As](=O)(O)O)cc1
[1]
  activity change, negative = inhibition: inactive: -1.07% [at 11.4 µM]

## Cc1cc([N+](=O)[O-])cc([N+](=O)[O-])c1O
[1]
  activity change, negative = inhibition: inactive: -4.54%

## O=C(OC1CN2CCC1CC2)c1cccc(Cl)c1 (stereo not given)
[1]
  activity change, negative = inhibition: inactive: 1.11%

## C(Cc1nn[nH]n1)Cc1nn[nH]n1
[1]
  activity change, negative = inhibition: inactive: -1.15%

## CC(=O)NC(SC(=S)N(C)C)C(Cl)(Cl)Cl (stereo not given)
[1]
  activity change, negative = inhibition: inactive: -3.07%

## c1nnnn1CCn1cnnn1
[1]
  activity change, negative = inhibition: inactive: -0.0464%

## O=P(Nc1nccs1)(c1ccccc1)c1ccccc1
[1]
  activity change, negative = inhibition: inactive: 2.29%

## CC(C)C(=O)NC(Sc1ccccc1)C(Cl)(Cl)Cl (stereo not given)
[1]
  activity change, negative = inhibition: inactive: -0.898%

## C[C@@H](O)COc1ccc([As](=O)(O)O)cc1N
[1]
  activity change, negative = inhibition: inactive: 5.68% [at 11.4 µM]

## CN1CCC[C@H](OC(=O)C(c2ccccc2)c2ccccc2)C1
[1]
  activity change, negative = inhibition: inactive: 7.71% [at 11.4 µM]

## O=P1(Nc2nc3ccc(Cl)cc3s2)COc2ccccc2O1 (stereo not given)
[1]
  activity change, negative = inhibition: inactive: -11.8%

## CCOC(=O)NC(Sc1ccccc1)C(Cl)(Cl)Cl (stereo not given)
[1]
  activity change, negative = inhibition: inactive: -2%

## CCC(=O)N1C2C3N(C(=O)CC)C1C1N(C(=O)CC)C(C(N1C(=O)CC)N3C(=O)CC)N2C(=O)CC
[1]
  activity change, negative = inhibition: inactive: 8.46%

## COC(=O)c1cc2c(s1)N=C(c1ccccc1)N(C)P2(=O)N1CCOCC1 (stereo not given)
[1]
  activity change, negative = inhibition: inactive: -1.63%

## CC(=O)NC(SC(=S)N(CC(C)C)CC(C)C)C(Cl)(Cl)Cl (stereo not given)
[1]
  activity change, negative = inhibition: inactive: 0.103%

## CCOP(=O)(Nc1ccccc1)OCC
[1]
  activity change, negative = inhibition: inactive: 11.1%

## Cc1cc(SC(NC(=O)c2ccc(F)cc2)C(Cl)(Cl)Cl)ncn1 (stereo not given)
[1]
  activity change, negative = inhibition: inactive: -4.36%

## CN(C(=O)Cc1ccc(Cl)c(Cl)c1)[C@H]1CCCC[C@@H]1N1CCCC1
At 0.00818 µM (top of the series)
  activity change, negative = inhibition: inactive: 1.88%
At 57.1 µM (top of the series)
  activity change, negative = inhibition: inactive: 1.72% and inactive: -3.37% and inactive: -4.87%

## C(Cc1nn[nH]n1)c1nn[nH]n1
[1]
  activity change, negative = inhibition: inactive: 0.448% [at 11.4 µM]

## CCN(N=Nc1nonc1N)c1nonc1N
[1]
  activity change, negative = inhibition: inactive: 0.225%

## [N-]=[N+]=NCC(O)CN=[N+]=[N-] (stereo not given)
[1]
  activity change, negative = inhibition: inactive: 3.25% [at 11.4 µM]

## CN1CCCC(OC(=O)C(c2ccccc2)c2ccccc2)C1 (stereo not given)
[1]
  activity change, negative = inhibition: inactive: 19.7%

## O=[N+]([O-])c1ccc(C[As](=O)(O)O)cc1
[1]
  activity change, negative = inhibition: inactive: -1.54% [at 11.4 µM]

## NCC[C@@H](N)CSP(=O)(O)O
[1]
  activity change, negative = inhibition: inactive: -3.05% [at 11.4 µM]

## Oc1ccccc1CNc1ccccn1
[1]
  activity change, negative = inhibition: inactive: 12.9%

## Cc1c2non([O-])c-2c(C)[n+](=O)[n+]1[O-]
[1]
  activity change, negative = inhibition: inactive: -12.1%

## O=C(NC(Sc1ccncn1)C(Cl)(Cl)Cl)c1ccccc1 (stereo not given)
[1]
  activity change, negative = inhibition: inactive: -0.461%

## CC(C)CC(=O)NC(Sc1ccc(Cl)cc1)C(Cl)(Cl)Cl (stereo not given)
[1]
  activity change, negative = inhibition: inactive: -3.27%

## CCc1nc2c(n1)c1c(non1O)c1c2no[n+]1[O-]
[1]
  activity change, negative = inhibition: inactive: -3.84%

## CC(=O)N1C2C3N(C(C)=O)C1C1N(C(C)=O)C(C(N1C(C)=O)N3C(C)=O)N2C(C)=O
[1]
  activity change, negative = inhibition: inactive: -1.6%

## O=[N+]([O-])c1cccc2n[nH]nc12
[1]
  activity change, negative = inhibition: inactive: -4.54%

## CC1CCN(C(=O)Oc2c(Cl)cc(Cl)c3cccnc23)CC1
[1]
  activity change, negative = inhibition: inactive: -0.137%

## CC(=O)C1=CCCC2CCC1N2 (stereo not given)
[1]
  activity change, negative = inhibition: inactive: -0.174% [at 0.00818 µM]

## O=C(CO)Nc1ccc([As](=O)(O)O)cc1
[1]
  activity change, negative = inhibition: inactive: -2.7% [at 11.4 µM]

## CN(C)C(=O)OCCc1n(C)cc[n+]1C
[1]
  activity change, negative = inhibition: inactive: 3.28%

## CN(C(=O)Cc1ccccc1)[C@@H]1CC[C@@]2(CCCO2)C[C@H]1N1CCCC1
[1]
  activity change, negative = inhibition: inactive: 3.46%
